Measurements as given in publication PMC10310857 (Nature Communications, 2023).
Where two headings read alike, the source gives them in different places.

The chains behind the UniProt entries cited, without tags or fusion partners.
UniProt G2X9U7, entry or part of it: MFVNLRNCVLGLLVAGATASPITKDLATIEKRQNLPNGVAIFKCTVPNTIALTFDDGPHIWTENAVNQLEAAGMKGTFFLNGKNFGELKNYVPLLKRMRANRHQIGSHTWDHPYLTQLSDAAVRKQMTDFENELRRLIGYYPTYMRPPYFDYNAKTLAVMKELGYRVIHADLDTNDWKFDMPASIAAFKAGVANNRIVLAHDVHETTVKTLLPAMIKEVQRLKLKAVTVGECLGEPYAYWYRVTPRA

Target: VdPDA1 (Verticillium dahliae, UniProt G2X9U7)
Test: biochemical

O=C(NO)c1ccccc1 [Compound 1, benzohydroxamic acid]
inhibition at 100 µM (read-out: Inhibition Rate VdPDA1 Mean): 96.3%
inhibition at 100 µM (read-out: VdPDA1 Inhibition rate (%, mean ± SD, 100 μM)): 96.3 ± 0.4%
